Measurements from article PMC2757418.

Key:
[1] = target: Aβ1–17 peptide (Anaspec); test: ELISA
[2] = target: Aβ1–42 peptide (Anaspec); test: ELISA

pKd [1]: 7.52 | pKd [2]: 7.66
Substance: Recombinant Flag-netrin-1 (Apotech Corp, Axxora) (from UniProt O09118 25-604) (ligand)

pKd: −log10 of the molar value.
